Earlier results as cited in patent US7109245B2, “Vasoconstrictor cannabinoid analogs” (priority 2001, dated 2006).

Amino acid sequences for entries named in this document (tags omitted).
UniProt P21554, whole entry, species assumed: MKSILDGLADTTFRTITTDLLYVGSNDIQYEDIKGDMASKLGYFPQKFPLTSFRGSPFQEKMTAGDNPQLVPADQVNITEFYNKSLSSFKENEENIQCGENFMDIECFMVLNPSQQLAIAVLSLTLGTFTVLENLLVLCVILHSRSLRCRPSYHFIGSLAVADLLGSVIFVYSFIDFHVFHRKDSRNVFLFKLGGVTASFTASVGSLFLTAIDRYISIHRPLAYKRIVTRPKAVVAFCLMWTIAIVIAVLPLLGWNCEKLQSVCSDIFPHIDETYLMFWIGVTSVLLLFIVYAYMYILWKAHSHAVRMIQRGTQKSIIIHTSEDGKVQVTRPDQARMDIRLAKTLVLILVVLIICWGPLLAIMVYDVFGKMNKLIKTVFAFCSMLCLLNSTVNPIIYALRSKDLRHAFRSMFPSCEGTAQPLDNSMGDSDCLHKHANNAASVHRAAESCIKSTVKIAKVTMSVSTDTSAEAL

Target: brain cannabinoid (CB1) receptor (Homo sapiens, UniProt P21554)
Conditions: cited from earlier work

Q: With `C=C(C)[C@@H]1CCC(C)=C[C@H]1c1c(O)cc(CCCCC)cc1O` [cannabidiol] as the molecule, how does the “binding to CB1 receptor” value read?
A: Its value is “does not bind to CB1 receptors”.
